Source: patent publication US8173689B2 (Novartis AG, priority 2006, dated 2012)

Chains of the proteins cited; added tags and fusions are not shown. Lines headed by an entry give the natural chain unless they say otherwise; changes in a name come on top. Residues count along the entry.
UniProt P10721, 589-937 limits assumed: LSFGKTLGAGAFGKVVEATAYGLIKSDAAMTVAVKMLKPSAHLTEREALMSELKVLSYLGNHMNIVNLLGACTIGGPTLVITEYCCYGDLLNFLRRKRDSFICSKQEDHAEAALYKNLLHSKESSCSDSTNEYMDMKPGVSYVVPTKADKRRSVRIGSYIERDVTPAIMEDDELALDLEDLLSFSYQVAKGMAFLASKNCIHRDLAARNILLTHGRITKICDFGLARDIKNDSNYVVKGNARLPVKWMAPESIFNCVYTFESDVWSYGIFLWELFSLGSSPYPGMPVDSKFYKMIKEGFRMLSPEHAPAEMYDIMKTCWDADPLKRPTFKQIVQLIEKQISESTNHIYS
UniProt P09619: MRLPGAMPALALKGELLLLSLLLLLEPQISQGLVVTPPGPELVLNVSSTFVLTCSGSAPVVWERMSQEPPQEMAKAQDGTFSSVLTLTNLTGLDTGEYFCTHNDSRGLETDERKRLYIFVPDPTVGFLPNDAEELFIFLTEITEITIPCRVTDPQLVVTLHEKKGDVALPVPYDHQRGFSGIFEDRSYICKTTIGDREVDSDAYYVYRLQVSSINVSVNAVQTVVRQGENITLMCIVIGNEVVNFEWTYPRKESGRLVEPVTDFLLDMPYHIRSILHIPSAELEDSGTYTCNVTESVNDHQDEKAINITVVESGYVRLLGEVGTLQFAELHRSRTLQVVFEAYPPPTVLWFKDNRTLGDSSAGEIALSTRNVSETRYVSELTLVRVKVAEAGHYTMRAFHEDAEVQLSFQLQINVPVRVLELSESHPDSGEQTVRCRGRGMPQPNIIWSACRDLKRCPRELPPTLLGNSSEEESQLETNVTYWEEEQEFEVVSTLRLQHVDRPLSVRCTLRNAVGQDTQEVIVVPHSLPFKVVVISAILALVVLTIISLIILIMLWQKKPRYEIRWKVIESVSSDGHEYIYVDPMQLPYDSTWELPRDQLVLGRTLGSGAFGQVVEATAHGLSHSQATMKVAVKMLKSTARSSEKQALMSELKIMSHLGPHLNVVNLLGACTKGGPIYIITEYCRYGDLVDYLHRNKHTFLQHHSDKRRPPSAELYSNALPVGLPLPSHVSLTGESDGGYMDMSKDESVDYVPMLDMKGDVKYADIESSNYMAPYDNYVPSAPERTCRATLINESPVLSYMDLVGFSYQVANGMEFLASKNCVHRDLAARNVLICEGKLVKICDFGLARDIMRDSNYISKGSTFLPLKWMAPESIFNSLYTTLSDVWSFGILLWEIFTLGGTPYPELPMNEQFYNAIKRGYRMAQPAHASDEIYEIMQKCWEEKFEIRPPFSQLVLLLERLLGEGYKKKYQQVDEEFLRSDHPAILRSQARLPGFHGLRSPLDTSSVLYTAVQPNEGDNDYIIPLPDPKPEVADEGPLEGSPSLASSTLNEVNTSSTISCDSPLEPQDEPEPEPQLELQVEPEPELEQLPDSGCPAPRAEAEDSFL

Legend:
Settings in all cases: tested at about 1 μM; compounds of Table 3
[1] = target: T1, cytoplasmic domain of the human CSF-1R (Homo sapiens, UniProt P07333); experiment: In vitro kinase assay for colony stimulating factor-1 receptor (AlphaScreen); type: biochemical
T1 construct: Recombinant protein corresponding to the cytoplasmic domain of the human CSF-1R; purchased Invitrogen Corporation, Carlsbad, Calif; PV3249
T1 sequence (P07333 539-972 limits assumed): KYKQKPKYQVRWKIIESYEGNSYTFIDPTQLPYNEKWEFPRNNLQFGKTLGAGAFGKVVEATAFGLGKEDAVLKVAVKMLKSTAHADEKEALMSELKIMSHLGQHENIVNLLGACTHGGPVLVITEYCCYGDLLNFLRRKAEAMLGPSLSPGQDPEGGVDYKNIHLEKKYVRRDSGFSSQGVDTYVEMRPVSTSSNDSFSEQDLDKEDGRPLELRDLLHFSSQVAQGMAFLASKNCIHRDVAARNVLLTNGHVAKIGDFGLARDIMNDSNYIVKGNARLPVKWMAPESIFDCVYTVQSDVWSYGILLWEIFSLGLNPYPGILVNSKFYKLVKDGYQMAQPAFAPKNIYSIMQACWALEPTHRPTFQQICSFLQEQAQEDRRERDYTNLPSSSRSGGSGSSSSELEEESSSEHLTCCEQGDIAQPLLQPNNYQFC
Description: The kinase activity of various protein tyrosine kinases can be measured by providing ATP and a suitable peptide or protein tyrosine-containing substrate, and assaying the transfer of phosphate moiety to the tyrosine residue. Recombinant protein corresponding to the cytoplasmic domain of the human CSF-1R was purchased from Invitrogen Corporation, Carlsbad, Calif. U.S.A. (#PV3249). For each assay, test compounds were serially diluted, starting at 25 μM with 3 fold dilutions, in DMSO in 384 well plates then mixed with an appropriate kinase reaction buffer consisting of 50 mM Hepes, 5 mM MgCl2, 10 mM MnCl2, 0.1% BSA, pH 7.5, 1.0 mM dithiothreitol, 0.01% Tween 80 plus 1 μM ATP. […] Added to the stopped reaction mix was 30 μL of PT66 Alphascreen beads (Perkin Elmer, Boston, Mass., U.S.A.). The reaction was incubated overnight and read on the Envision (Perkin Elmer). Phosphorylated peptide product was measured with the AlphaScreen system (Perkin Elmer) using acceptor beads coated with anti-phosphotyrosine antibody PT66 and donor beads coated with streptavidin that emit a fluorescent signal at the 520-620 nm emission wave length if in close proximity.
CSF-1R kinase was added at final concentration of 4 nM.

[2] = target: T2, full-length human CSF-1R receptor (Homo sapiens, UniProt P07333); experiment: In vitro inhibition of CSF-1R receptor tyrosine phosphorylation in transfected HEK293H cells stimulated with MCSF; type: cell-based
T2 construct: transfected with the full-length human CSF-1R receptor cloned in house; expressed in transfected cells; host or cells: HEK293H (Invitrogen Cat. #11631017)
Description: The lysate was then transferred to total CSF-1R antibody coated 96-well plates that had already been blocked with 3% Blocker A from Mesoscale discovery (MSD) for 2 hours and washed afterwards. Lysates were incubated overnight at 4° C. and the plates were then washed 4× with MSD Tris Wash Buffer. […] The plates were read on the Sector 6000 instrument (MSD). Raw data was imported in Abase and EC50s calculated with XL-fit data analysis software.

[3] = target: T3, kinase domain of cKIT (Homo sapiens, UniProt P10721); experiment: Inhibition of cKIT kinase signaling in an in vitro biochemical assay (alphascreen)
T3 construct: The kinase domain of cKIT was assayed in 50 mM Hepes; purchased Upstate 14-559
Description: (§1) The IC50 values for the inhibition of RTKs were determined in the alphascreen format measuring the inhibition by compound of phosphate transfer to a substrate by the respective enzyme. Briefly, the respective RTK domain purchased as human recombinant protein (cKIT Upstate #14-559, PDGFRb Invitrogen #P3082) were incubated with serial dilutions of compound in the presence of substrate and ATP concentrations within 3 times the Km of the enzyme.
(§2) Alphascreen PY20 beads were added to the stopped cKIT reactions and PY20 Ab/Protein A Alphascreen beads were added to the PDGFRβ stopped reactions. Both reactions were incubated overnight and read on the Alphascreen reader.

[4] = target: T4, kinase domain of PDGFRβ (Homo sapiens, UniProt P09619); experiment: Inhibition of PDGFRb kinase signaling in an in vitro biochemical assay (alphascreen)
T4 construct: The kinase domain of PDGFRβ was assayed in 50 mM Hepes; purchased Invitrogen P3082
Description: as §1, §2

[5] = test system: MNFS60 (murine AML cells); experiment: Cell viability assay in MCSF dependent MNFS60 cells (Cell Titer Glo); type: cell-based
Description: Cell viability was assessed by Cell Titer Glo, Promega. […] Test compounds were serially diluted (3 fold) in DMSO to 500× the final concentration. […] Final concentration of MCSF is 10 ng/ml. Cells were incubated for 72 hrs at 37° C., 5% CO2. After the incubation 100 μl Cell Titer Glo is added to each well to determine viable cells. The assay was performed according to the manufacturer's instruction (Promega Corporation, Madison, Wis. USA). Each experimental condition was performed in triplicate. Raw data was imported in Abase and EC50s calculated with XL-fit data analysis software.

4-[2-(2,5-Difluoro- benzylamino)-benzooxazol- 6-yloxy]-pyridine-2- carboxylic acid methylamide [Compound 33]
CSF-1R percent inhibition [1]: 100% | pCSF1R percent inhibition [2]: 66% | cKit percent inhibition [3]: 18% | PDGFRβ percent inhibition [4]: 2% | M-NFS-60 CP percent inhibition [5]: 54%
